Laboratory results taken from patent US20230057788A1, “METHOD OF TREATING CHRONIC MYELOID LEUKEMIA USING PEGYLATED INTERFERON AND TYROSINE KINASE INHIBITOR” (PharmaEssentia Corporation, priority 2021, published 2023).

Assays:
[1] = Nordic CML study group; imatinib in combination with peginterferon alfa-2b; cited from earlier work
[2] = human, in vivo
BCR-ABL1 transcripts = assay: Phase 1 study: molecular response, real-time PCR monitoring of BCR-ABL1 transcripts in CML patients; type: in vivo, human; conditions: added to imatinib
[3] = at final visit (1 month after last ropeginterferon alpha-2b)

In the case of peginterferon alfa-2b, the “Discontinuation rate in the combination arm” value [1] is given as 60%.
With ropeginterferon alfa-2b the “ALAT elevated, number of patients” value [2] was 5, the “Adverse events grade 4 or 5” value [2] was “^bAdverse event terms are summarized MedDRA preferred terms; no events grade 4 or 5” and the “Anemia, percent of patients” value [2] was “(58%)”. For the same substance, the “Asthenia, percent of patients” value [2] was “(8%)”, the “Dizziness, percent of patients” value [2] was “(17%)” and the “Fatigue, percent of patients” value [2] was “(42%)”. For the same substance, the “GGT elevated, number of patients” value [2] was 4, the “Headache, percent of patients” value [2] was “(42%)” and the “Musculoskeletal pain, percent of patients” value [2] was “(25%)”. The “Neutropenia, number of patients” value [2] was 6, the New adverse events [2] was “No new AEs were reported” and the “Patients in whom treatment had to be discontinued” value [2] was 25%. The “Patients who completed the study treatment according to protocol” value [2] was 75%, the “Patients with recurrent grade 3 neutropenia (DLT) leading to discontinuation” value [2] was “One” and the “Thrombocytopenia, percent of patients” value [2] was “(75%)”. The “Percent of patients with decrease in BCR-ABL1” value (BCR-ABL1 transcripts; after 12 months to final visit) was “(87.5%)”, the “Number of patients with decrease in BCR-ABL1” value (BCR-ABL1 transcripts; after 12 months) was 8/8^a and the “Number of patients with molecular remission <4.5” value (BCR-ABL1 transcripts; after 12 months) was “One”. For the same substance, the “Percent of patients with decrease in BCR-ABL1” value (BCR-ABL1 transcripts; after 12 months) was “(100%)”, the “Percent of patients with molecular remission <4.5” value (BCR-ABL1 transcripts; after 12 months) was “(12.5%)” and the “BCR ABL1 transcript levels compared to the screening visit” value (BCR-ABL1 transcripts; at 12 months as well as at the final visit, p=0.012) was “significantly lower”. For the same substance, the “Number of patients with an MR 4.5” value (BCR-ABL1 transcripts; at 18 months, p=0.0125) was “four”, the “Number of patients with decrease in BCR-ABL1” value (BCR-ABL1 transcripts; [3]) was 8/9 and the “Number of patients with molecular remission <4.5” value (BCR-ABL1 transcripts; [3]) was 4/9. For the same substance, the “Percent of patients with decrease in BCR-ABL1” value (BCR-ABL1 transcripts; [3]) was “(88.9%)”, the “Percent of patients with molecular remission <4.5” value (BCR-ABL1 transcripts; [3]) was “(44.4%)” and the “Difference of the BCR-ABL1 transcript level between 12 and 18 months of treatment” value (BCR-ABL1 transcripts; p=0.128) was “No significant difference”.

Marks after values point to notes of the source that are not given here.
